Consider one compound from patent publication US11116741B2, “Method for the treatment of valvular heart disease comprising administering a composition comprising sarpogrelate” (CEVA SANTE ANIMALE, priority 2017, dated 2021).

The series can be described thus: Body weight, food intake, water intake, systolic blood pressure and heart rate in the NdF mouse model. The format is in vivo, mice. The method, then:
Before the start of the experiment, baseline systolic blood pressure, heart rate and body weight were measured. After this step, mice were subcutaneously implanted a mini-osmotic pump (Alzet® 1004) delivering either NdF dissolved in sterile water at 1 mg/kg/day or sterile water (vehicle) for 28 days. The dose of sarpogrelate administered was 2 mg/kg/day. The experiment started two days after the subcutaneous implantation so as to allow the activation of the mini-osmotic pump. Systolic blood pressure, heart rate and body weight were measured each week until the end of the experiment. At the term (day 28), urinary samples were collected from mice to determine 5-hydroxy-indol acetic acid concentration (5-HIAA which is a serotonin metabolite). NdF induces the release of serotonin, therefore increasing urinary 5-HIAA.
Measures of body weight (Table 3), food intake (Table 4), water intake (Table 5), systolic blood pressure (Table 6), heart rate (Table 7), effect of sarpogrelate on the cellularity (tables 8-9) and effect of sarpogrelate on reduction of mitral valve thickness (table 10) are shown below.

Consider `C[C@H](N)Cc1cccc(C(F)(F)F)c1` [NdF, nordexfenfluramine], for which, where the note is “Week 2”, the Body weight is on record as 26.7 g. Where the note is “Week 3”, this compound showed a Systolic blood pressure of 105.6 mmHg.
